Laboratory results taken from ChEMBL document CHEMBL3526049 (Drug Metab Dispos, 2012).

Assay: Half life in MRP2 knockout Sprague-Dawley rat at 1 mg/kg, iv by LC-MS/MS analysis
Type: ADME, organism-based
Design: dose 1 mg/kg, route intravenous
Details: in vivo
Method in brief: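 Male Sprague-Dawley rats (knockout or wild type matched for age and weight), femoral artery and vein cannulated, at least 2 days recovery. Crossover design: IV bolus 1 mg/kg on day 0 (saline with 0.2 M equivalents HCl), oral gavage 10 mg/kg on day 3 (water with 0.2 M equivalents HCl). Arterial plasma sampled to 24 h (Mdr1a oral arm to 4 h). Analysed by LC-MS/MS and noncompartmental analysis.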

half-life: 8.1 h
SMILES: CC(=O)O[C@H]1C(=O)[C@@]2(C)[C@H]([C@H](OC(=O)c3ccccc3)[C@]3(O)C[C@H](OC(=O)[C@H](O)[C@@H](NC(=O)c4ccccc4)c4ccccc4)C(C)=C1C3(C)C)[C@]1(OC(C)=O)CO[C@@H]1C[C@@H]2O [PACLITAXEL]
